1 protein from patent US20080003630 can be followed below.

This data set addresses T1, GST-poly (Glu, Tyr) fusion protein.
T1 chain: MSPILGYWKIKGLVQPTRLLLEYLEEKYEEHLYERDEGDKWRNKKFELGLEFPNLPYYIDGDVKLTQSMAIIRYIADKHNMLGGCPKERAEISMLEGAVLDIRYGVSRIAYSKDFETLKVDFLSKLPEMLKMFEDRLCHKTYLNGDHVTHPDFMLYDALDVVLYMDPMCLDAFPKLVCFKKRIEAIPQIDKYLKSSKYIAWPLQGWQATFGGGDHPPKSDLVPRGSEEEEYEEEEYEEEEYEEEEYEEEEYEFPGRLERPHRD

B1: EGF Receptor 1 Kinase, intracellular domain (ICD) (protein)
chain: HIVRKRTLRRLLQERELVEPLTPSGEAPNQALLRILKETEFKKIKVLGSGAFGTVYKGLWIPEGEKVKIPVAIKELREATSPKANKEILDEAYVMASVDNPHVCRLLGICLTSTVQLITQLMPFGCLLDYVREHKDNIGSQYLLNWCVQIAKGMNYLEDRRLVHRDLAARNVLVKTPQHVKITDFGLAKLLGAEEKEYHAEGGKVPIKWMALESILHRIYTHQSDVWSYGVTVWELMTFGSKPYDGIPASEISSILEKGERLPQPPICTIDVYMIMVKCWMIDADSRPKFRELIIEFSKMARDPQRYLVIQGDERMHLPSPTDSNFYRALMDEEDMDDVVDADEYLIPQQGFFSSPSTSRTPLLSSLSATSNNSTVACIDRNGLQSCPIKEDSFLQRYSSDPTGALTEDSIDDTFLPVPEYINQSVPKRPAGSVQNPVYHNQPLNPAPSRDPHYQDPHSTAVGNPEYLNTVQPTCVNSTFDSPAHWAQKGSHQISLDNPDYQQDFFPKEAKPNGIFKGSTAENAEYLRVAPQSSEFIGA
B1: the “phosphorylation of the plate-bound substrate, ELISA with HRP-labeled p-Tyr (PY20) antibody, absorbance (650 nm)” value is “In either case of HER1 and IGF1R, as the tyrosine kinase amount increased, a measured value was increased”; the “phosphorylation of the substrate with ATP, Western blotting with Anti-Phosphotyrosine clone 4G10” value is “In +of all of (i to vii) in FIG. 1, a single band was observed at a position where the phosphorylated GST-poly (Glu, Tyr) fusion protein appears”.
